IntAct's records for PubMed 17932490

B1: RAC-alpha serine/threonine-protein kinase (Homo sapiens), P31749 (parent)
chain: MSDVAIVKEGWLHKRGEYIKTWRPRYFLLKNDGTFIGYKERPQDVDQREAPLNNFSVAQCQLMKTERPRPNTFIIRCLQWTTVIERTFHVETPEEREEWTTAIQTVADGLKKQEEEEMDFRSGSPSDNSGAEEMEVSLAKPKHRVTMNEFEYLKLLGKGTFGKVILVKEKATGRYYAMKILKKEVIVAKDEVAHTLTENRVLQNSRHPFLTALKYSFQTHDRLCFVMEYANGGELFFHLSRERVFSEDRARFYGAEIVSALDYLHSEKNVVYRDLKLENLMLDKDGHIKITDFGLCKEGIKDGATMKTFCGTPEYLAPEVLEDNDYGRAVDWWGLGVVMYEMMCGRLPFYNQDHEKLFELILMEEIRFPRTLGPEAKSLLSGLLKKDPKQRLGGGSEDAKEIMQHRFFAGIVWQHVYEKKLSPPFKPQVTSETDTRYFDEEFTAQMITITPPDQDDSMECVDSERRPHFPQFSYSASGTA
partner: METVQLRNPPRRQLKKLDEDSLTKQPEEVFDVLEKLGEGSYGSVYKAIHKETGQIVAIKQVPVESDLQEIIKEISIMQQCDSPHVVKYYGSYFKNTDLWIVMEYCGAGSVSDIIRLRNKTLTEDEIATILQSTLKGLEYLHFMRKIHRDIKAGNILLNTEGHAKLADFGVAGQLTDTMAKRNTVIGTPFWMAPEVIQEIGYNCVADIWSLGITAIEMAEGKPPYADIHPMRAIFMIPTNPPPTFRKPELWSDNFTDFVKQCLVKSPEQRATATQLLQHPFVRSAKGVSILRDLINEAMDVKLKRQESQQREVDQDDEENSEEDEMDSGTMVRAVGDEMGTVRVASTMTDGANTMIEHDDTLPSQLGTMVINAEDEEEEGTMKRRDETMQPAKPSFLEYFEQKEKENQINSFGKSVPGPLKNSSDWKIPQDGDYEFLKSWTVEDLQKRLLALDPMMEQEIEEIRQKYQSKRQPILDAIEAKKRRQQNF

Variants of: B1
Settings: with stk4_human STK4, Q13043

Row | Variant | effect of a mutation on the interaction
1 | MSDVAIVKEGWLHKRGEYIKTWRPRYFLLKNDGTFIGYKERPQDVDQREAPLNNFSVAQCQLMKTERPRPNTFIIRCLQWTTVIERTFHVETPEEREEWTTAIQTVADGLKKQEEEEMDFRSGSPSDNSGAEEMEVSLAKPKHRVTMNEFEYLKLLGKGTFGKVILVKEKATGRYYAMKILKKEVIVAKDEVAHTLTENRVLQNSRHPFLTALKYSFQTHDRLCFVMEYANGGELFFHLSRERVFSEDRARFYGAEIVSALDYLHSEKNVVYRDLKLENLMLDKDGHIKITDFGLCKEGIKDGATMKTFCGTPEYLAPEVLEDNDYGRAVDWWGLGVVMYEMMCGRLPFYNQDHEKLFELILMEEIRFPRTLGPEAKSLLSGLLKKDPKQRLGGGSEDAKEIMQHRFFAGIVWQHVYEKKLSPAFKPQVTSETDTRYFDEEFTAQMITITPPDQDDSMECVDSERRPHFPQFSYSASGTA [P424A] | disrupting interaction
2 | MSDVAIVKEGWLHKRGEYIKTWRPRYFLLKNDGTFIGYKERPQDVDQREAPLNNFSVAQCQLMKTERPRPNTFIIRCLQWTTVIERTFHVETPEEREEWTTAIQTVADGLKKQEEEEMDFRSGSPSDNSGAEEMEVSLAKPKHRVTMNEFEYLKLLGKGTFGKVILVKEKATGRYYAMKILKKEVIVAKDEVAHTLTENRVLQNSRHPFLTALKYSFQTHDRLCFVMEYANGGELFFHLSRERVFSEDRARFYGAEIVSALDYLHSEKNVVYRDLKLENLMLDKDGHIKITDFGLCKEGIKDGATMKTFCGTPEYLAPEVLEDNDYGRAVDWWGLGVVMYEMMCGRLPFYNQDHEKLFELILMEEIRFPRTLGPEAKSLLSGLLKKDPKQRLGGGSEDAKEIMQHRFFAGIVWQHVYEKKLSPPFKAQVTSETDTRYFDEEFTAQMITITPPDQDDSMECVDSERRPHFPQFSYSASGTA [P427A] | disrupting interaction
